Measurements reported in patent US20160252494A1, “MICROSCALE MICROPATTERNED ENGINEERED IN VITRO TISSUE” (priority 2005, published 2016).

Tested on: micropatterned human co-cultures (primary human hepatocytes with 3T3-J2 fibroblasts)
Conditions: 24 hour exposure at 400 μM, MTT
Description: Cultures were incubated with various concentrations of compounds dissolved in culture medium for 24 hours (acute toxicity) or extended time periods (chronic toxicity, 1-4 days). Cell viability was subsequently measured via the MTT (3-(4,5-dimethylthiazol-2-yl)-2,5-diphenyl tetrazolium bromide; Sigma) assay, which involves cleavage of the tetrazolium ring by mitochondrial dehydrogenase enzymes to form a purple precipitate. MTT was added to cells in DMEM without phenol red at a concentration of 0.5 mg/mL. After an incubation time of 1 hour, the purple precipitate was dissolved in a 1:1 solution of DMSO and Isopropanol. The absorbance of the solution was measured at 570 nm (SpectraMax spectrophotometer, Molecular Devices, Sunnyvale, Calif.).
Use of optimized micropatterned human co-cultures to evaluate metabolism and toxicity of xenobiotics. […] Acute toxicity tests involved incubating eight day old co-cultures for 24 hrs with various drugs, some with known clinical hepatotoxic potential. After the incubation time period, the cell culture medium was aspirated and a viability assay was conducted (MTT assay—commercially available). […]
To assess utility of the microscale human liver tissue for toxicity assays, the acute and chronic toxicity of model hepatotoxins were quantified. […]

## CN(CCOc1ccc(CC2SC(=O)NC2=O)cc1)c1ccccn1 (stereo not shown) [rosiglitazone]
  Relative toxicity of compounds in the same class (PPAR-gamma agonists): corresponded to clinical reports
